This note sets out measurements from ChEMBL document CHEMBL1800055, “Orally active MMP-1 sparing α-tetrahydropyranyl and α-piperidinyl sulfone matrix metalloproteinase (MMP) inhibitors with efficacy in cancer, arthritis, and cardiovascular disease” (J Med Chem, 2010).

By UniProt entry, the sequences of proteins in these tests, tags left out. Where a name states a change or a piece, a line headed by the entry shows the natural chain unless it says otherwise.
UniProt P08254: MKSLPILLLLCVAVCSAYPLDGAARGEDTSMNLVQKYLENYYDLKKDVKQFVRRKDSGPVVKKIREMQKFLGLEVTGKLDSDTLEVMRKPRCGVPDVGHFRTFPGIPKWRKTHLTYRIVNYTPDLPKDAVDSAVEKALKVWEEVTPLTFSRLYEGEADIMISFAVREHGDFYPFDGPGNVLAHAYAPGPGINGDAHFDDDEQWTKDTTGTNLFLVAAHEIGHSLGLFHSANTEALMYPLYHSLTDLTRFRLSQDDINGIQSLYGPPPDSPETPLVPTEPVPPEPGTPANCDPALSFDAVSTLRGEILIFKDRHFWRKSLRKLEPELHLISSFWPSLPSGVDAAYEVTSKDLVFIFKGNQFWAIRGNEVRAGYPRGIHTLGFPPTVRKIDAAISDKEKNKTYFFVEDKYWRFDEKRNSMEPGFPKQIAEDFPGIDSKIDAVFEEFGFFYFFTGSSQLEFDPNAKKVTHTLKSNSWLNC
UniProt P08253: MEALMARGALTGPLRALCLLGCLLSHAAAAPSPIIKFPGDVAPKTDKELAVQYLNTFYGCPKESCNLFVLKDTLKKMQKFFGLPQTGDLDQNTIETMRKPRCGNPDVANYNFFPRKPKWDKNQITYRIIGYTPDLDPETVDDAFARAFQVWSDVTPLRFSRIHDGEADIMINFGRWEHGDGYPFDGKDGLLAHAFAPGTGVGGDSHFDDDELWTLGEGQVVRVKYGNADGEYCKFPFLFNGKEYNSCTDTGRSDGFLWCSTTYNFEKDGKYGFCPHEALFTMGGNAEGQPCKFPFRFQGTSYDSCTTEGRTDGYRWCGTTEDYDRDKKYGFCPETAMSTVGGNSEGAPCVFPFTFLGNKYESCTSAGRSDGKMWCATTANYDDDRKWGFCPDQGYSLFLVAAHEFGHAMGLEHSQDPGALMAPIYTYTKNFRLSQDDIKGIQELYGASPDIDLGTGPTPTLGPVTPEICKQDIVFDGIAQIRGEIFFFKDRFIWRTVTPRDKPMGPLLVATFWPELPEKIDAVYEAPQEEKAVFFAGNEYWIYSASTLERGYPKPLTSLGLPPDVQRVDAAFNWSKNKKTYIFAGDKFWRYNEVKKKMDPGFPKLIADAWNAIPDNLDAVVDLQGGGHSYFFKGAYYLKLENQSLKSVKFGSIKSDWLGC

For one experiment, the target named is Stromelysin-1 (Homo sapiens, UniProt P08254).
For experiment [1], the target named is 72 kDa type IV collagenase (Homo sapiens, UniProt P08253).

At Stromelysin-1, `O=C(NO)C1(S(=O)(=O)c2ccc(Oc3ccc(SC(F)(F)F)cc3)cc2)CCOCC1` had an IC50 of 20 nM. `CCOCCN1CCC(C(=O)NO)(S(=O)(=O)c2ccc(Oc3ccc(OC(F)(F)F)cc3)cc2)CC1` gave an IC50 in experiment [1] of less than 0.1 nM.

The term IC50 denotes the concentration needed to halve the response being measured.
